Measured values: ChEMBL document CHEMBL5338731, “Development of Neuropeptide Hemokinin-1 Analogues with Antimicrobial and Wound-Healing Activity” (J Med Chem, 2023)
Values after ≈ are worked out from the molar mass of the structure shown.

Assays:
Format in all cases: functional
Staphylococcus aureus [1] = test: Antimicrobial activity against Staphylococcus aureus ATCC 25923 assessed as inhibition of bacterial growth incubated for 18 hrs by serial dilution method
Escherichia coli [2] = test: Antimicrobial activity against Escherichia coli ML-35 assessed as inhibition of bacterial growth incubated for 18 hrs by serial dilution method
Pseudomonas aeruginosa [3] = test: Antimicrobial activity against Pseudomonas aeruginosa PAO1 assessed as inhibition of bacterial growth incubated for 18 hrs by serial dilution method
Escherichia coli [4] = test: Antimicrobial activity against Escherichia coli ATCC 25922 assessed as inhibition of bacterial growth incubated for 18 hrs by serial dilution method
Staphylococcus aureus [5] = test: Antimicrobial activity against Staphylococcus aureus ATCC 29213 assessed as inhibition of bacterial growth incubated for 18 hrs by serial dilution method
Pseudomonas aeruginosa [6] = test: Antimicrobial activity against Pseudomonas aeruginosa ATCC 27853 assessed as inhibition of bacterial growth incubated for 18 hrs by serial dilution method
Bacillus subtilis = test: Antimicrobial activity against Bacillus subtilis ATCC 23857 assessed as inhibition of bacterial growth incubated for 18 hrs by serial dilution method

Structure (SMILES): CC[C@H](C)[C@H](NC(=O)CN)C(=O)NCC(=O)N[C@@H](C)C(=O)N[C@H](C(=O)N[C@@H](CC(C)C)C(=O)N[C@@H](CCCCN)C(=O)N[C@H](C(=O)N[C@@H](CC(C)C)C(=O)N[C@H](C(=O)N[C@H](C(=O)NCC(=O)N[C@@H](CC(C)C)C(=O)N1CCC[C@H]1C(=O)N[C@@H](C)C(=O)N[C@@H](CC(C)C)C(=O)N[C@H](C(=O)N[C@@H](CO)C(=O)N[C@@H](Cc1c[nH]c2ccccc12)C(=O)N[C@H](C(=O)N[C@@H](CCCCN)C(=O)N[C@@H](CCCNC(=N)N)C(=O)N[C@@H](CCCCN)C(=O)N[C@@H](CCCNC(=N)N)C(=O)N[C@@H](CCC(N)=O)C(=O)N[C@@H](CCC(N)=O)C(N)=O)[C@@H](C)CC)[C@@H](C)CC)[C@@H](C)O)[C@@H](C)O)C(C)C)C(C)C [MELITTIN]
- MIC (Staphylococcus aureus [1]): 4 µM (≈ 11.4 µg/mL)
- MIC (Escherichia coli [2]): 2 µM (≈ 5.69 µg/mL)
- MIC (Pseudomonas aeruginosa [3]): 4 µM (≈ 11.4 µg/mL)
- MIC (Escherichia coli [4]): 2 µM (≈ 5.69 µg/mL)
- MIC (Staphylococcus aureus [5]): 4 µM (≈ 11.4 µg/mL)
- MIC (Pseudomonas aeruginosa [6]): 4 µM (≈ 11.4 µg/mL)
- MIC (Bacillus subtilis): 4 µM (≈ 11.4 µg/mL)
